Sampled rows, rich in hits. Any-hit rate of the full collection: about 2.5%.
ClpP mod = qHTS Assay for Activators of ClpP | ATP-dependent Clp protease proteolytic subunit (Bacillus subtilis (strain 168)), P80244 | purified B. subtilis ClpP, FRET peptide cleavage, 20 min | Potency, µM (series often up to 57.5 µM), for the others: top-dose activity change, negative = active | 340,000 compounds, 1.9% hits | AID 651965, 2013; active = well fitted falling curve with a large enough effect; inconclusive = small, poorly fitted or top-dose-only effect; inactive = no such curve, though single readings can be large or run the other way; note: potency is the fitted concentration of half-maximal effect; the source files actives as falling curves though it sought activators and does not explain the sign; nearly all actives have a fitted effect of over 65% in size
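FRET quenching reversal measured ClpP activation: 10 microg/mL B. subtilis ClpP at pH 8 with the FRET-FV decapeptide, read at 430 nm after 320 nm excitation. The 20-min minus 0-min signal was scaled between DMSO/no-enzyme wells and ADEP (5.8 microM final).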
TrxR1 substrate = substrates of rat thioredoxin reductase 1; O89049; purified TrxR1 substrate turnover, NADPH consumption readout; Potency, µM (doses to about 114 µM), inactives show at the top dose activity change, negative = substrate turnover; 390,000 compounds, 0.01% hits; AID 588456; note: potency is the fitted concentration of half-maximal effect; % is set by controls: 0 for no effect and ±100 for the full control effect; nearly all actives have a fitted effect of over 50% in size
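Rat TrxR1, dispensed at 90 nM, was prereduced with 400 uM NADPH (final) for 5 min at ~22 deg C, then incubated with compound 15 min before 400 uM selenite. A first-read NADPH fluorescence drop versus no-compound background flagged substrates.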
miR-21 reporter = miR-21 reporter, rising signal; Potency, µM (doses to about 38.3 µM), without a hit: at the top dose reporter change, positive = more light; HeLa miR-21 FLuc reporter, luciferase, 48 h; 340,000 tested, under 10 active; active = well fitted rising curve with a large enough effect; inconclusive = small, poorly fitted or top-dose-only effect; inactive = no such curve, though single readings can be large or run the other way;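 further: % of control where 0% means no effect; miR-21 action dims this reporter so a rising signal means less miR-21 action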
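HeLa cells stably expressing CMV-driven firefly luciferase with a downstream miR-21 binding sequence, endogenously expressing miR-21, were treated with titrations (up to about 40uM final) for 48 hours at 37 degree Celsius. Luciferase luminescence was read after lysis.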
TrxR1 inh = inhibitors of rat thioredoxin reductase 1; O89049; recombinant rTrxR1, NADPH fluorescence consumption, selenite substrate; Potency, µM (doses to about 114 µM), for inactives: at the highest dose activity change, negative = inhibition, usual class: inhibitors; 390,000 compounds, 1% hits; note: potency is the fitted concentration of half-maximal effect; % is set by controls: 0 for no effect and ±100 for the full control effect; nearly all actives have a fitted effect of over 65% in size
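Rat TrxR1 (90 nM in the dispensed reagent) was pre-reduced with 400 uM NADPH for 5 min at room temperature, then incubated with compound for 15 min. After 400 uM selenite was added, NADPH fluorescence (Ex 340/Em 450 nm) was followed for 8 min.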
Anesthetic bind = candidate novel general anesthetic via apoferritin binding; 350,000 compounds, 0.074% hits; apoferritin/1-aminoanthracene competitive binding, fluorescence; Potency, µM (highest dose often 77.5 µM), for the others: top-dose activity change, negative = displacement, hits mostly inhibitors; AID 485281; P02791; note: potency is the fitted concentration of half-maximal effect; % is set by controls: 0 for no effect and ±100 for the full control effect; nearly all actives have a fitted effect of over 20% in size
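Concentration-response curves derived by four-parameter Hill fitting of normalized fluorescence, where compounds displaced 1-AMA from 10 uM horse apoferritin following a brief 10 min room-temperature incubation; propofol titration acted as positive control.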
An asterisk follows results filed as active; i = inactive; ? = inconclusive; · = no result given; ! = repeats disagree; [ ] = dose if it differs, or a comment. Unless noted, calls come from the whole dose curve; as a rule, active = well fitted curve in the direction sought with a large enough effect; inconclusive = small, poorly fitted or top-dose-only effect, or another doubt; inactive = no such curve, though single readings can be large; an effect the other way counts as inactive or inconclusive.

Protein sequences, listed by entry. Tags and fused reporters are not part of them.
ATP-dependent Clp protease proteolytic subunit (Bacillus subtilis (strain 168)), P80244, UniProt P80244, whole entry, looked up: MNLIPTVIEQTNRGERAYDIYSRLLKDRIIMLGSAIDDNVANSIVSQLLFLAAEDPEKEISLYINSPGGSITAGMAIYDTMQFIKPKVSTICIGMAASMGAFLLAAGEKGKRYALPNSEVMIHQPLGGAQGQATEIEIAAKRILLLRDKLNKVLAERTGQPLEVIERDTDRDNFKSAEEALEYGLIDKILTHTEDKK

SMILES | ClpP mod | TrxR1 substrate | miR-21 reporter | TrxR1 inh | Anesthetic bind
CCOc1cccc(C(=O)NC(=S)Nc2cccc(C)c2)c1 | 1% | -6% | -32% | 5µM* | 1%
COc1cccc(C(=O)NC(=S)Nc2ccc(N(C)C)cc2)c1 | 5% | -15% | -53% | 20µM* | -17%
CCOc1cccc(C2C=C(c3ccc4c(c3)OCO4)NC(c3ccc(Br)cc3)N2)c1O (stereo not drawn) | -1% | 6%[0.0914 µM] | · | -10% | ·
CC(=O)Nc1ccc(NC(=O)C(C)OC(=O)c2cccc(S(=O)(=O)N3CCCCC3)c2)cc1 (stereo not drawn) | 28µM* | -1% | -7% | -9% | ?
CC(Oc1ccccc1Cl)C(=O)Nc1ccc(S(=O)(=O)N2CCN(C)CC2)cc1 (stereo not drawn) | · | -2% | · | 20µM* | ·
CC(Oc1ccccc1)C(=O)Nc1ccc(S(=O)(=O)N2CCN(C)CC2)cc1 (stereo not drawn) | -3% | 13% | · | 28% | ·
O=C(CSc1nc2cc(C(=O)NC3CCCC3)ccc2c(=O)n1CC1CCCO1)c1cccc(Cl)c1 (stereo not drawn) | -5% | -3%[57.1 µM] | 13% | 1%[57.1 µM] | -8%
COc1cccc(CNC(=O)CSc2ncc(S(=O)(=O)c3ccc(C)c(Cl)c3)c(=O)[nH]2)c1 | 0% | -8%[57.1 µM] | -1% | 0%[57.1 µM] | 0%
COc1cc(NC(=O)COCc2cc(-c3ccc(F)cc3)on2)cc(OC)c1OC | -2% | -1% | 25% | 29% | -1%
CCn1cnc2c(=O)oc3ccc(S(=O)(=O)Nc4ccc(OC)cc4)cc3c21 | 0% | 2% | 0% | 15% | -10%
COc1ccc(NS(=O)(=O)c2ccc3oc(=O)c4[nH]c(=O)c(=O)n(C)c4c3c2)cc1 | 20µM* | 3% | -3% | 25% | -15%
COc1cc2c(=O)c(C(=O)c3ccc(C)c(C)c3)cn(Cc3ccccc3F)c2cc1OC | 2% | 1% | -9% | -10% | 17%
CCOc1ccccc1-n1nnnc1SCC(=O)NC(=O)NCc1ccco1 | 2% | 9% | 4% | ? | -22%
CCOc1ccccc1-n1nnnc1SCC(=O)NC(=O)Cc1ccccc1 | 25µM* | -14% | · | ? | ·
COc1ccc(C(=O)NCc2nnc(SCC(=O)Nc3ccc(F)cc3)n2-c2ccccc2)cc1 | -10% | -8% | 0% | -8% | 35%
CCCCS(=N)(=O)CC[C@H](N)C(=O)O (stereo partly drawn) | · | -2%[57.1 µM] | · | ? | ·
Cc1c(C(=O)N2CCN(c3ncccn3)CC2)sc2nc3n(c(=O)c12)CCCC3 | 28µM* | 6% | -3% | 1%[57.1 µM] | -9%
Cc1ccc(N(C)C(=O)c2sc3nc4n(c(=O)c3c2C)CCCC4)cc1C | 1% | 70% | -14% | 21% | i
Cc1c(C(=O)NCc2ccc(Cl)cc2)sc2nc3n(c(=O)c12)CCC3 | -19% | -2% | -12% | 3% | ?
COc1ccc(CNC(=O)c2sc3nc4n(c(=O)c3c2C)CCCCC4)cc1 | 2% | 23% | -8% | 7.1µM* | 216%

Whole records as entered above.
`O=C(CSc1nc2cc(C(=O)NC3CCCC3)ccc2c(=O)n1CC1CCCO1)c1cccc(Cl)c1` (stereo not drawn) is entered as ClpP mod = -5%; TrxR1 substrate = -3%[57.1 µM]; miR-21 reporter = 13%; TrxR1 inh = 1%[57.1 µM]; Anesthetic bind = -8%
`CCOc1cccc(C2C=C(c3ccc4c(c3)OCO4)NC(c3ccc(Br)cc3)N2)c1O` (stereo not drawn) is entered as ClpP mod = -1%; TrxR1 substrate = 6%[0.0914 µM]; miR-21 reporter = ·; TrxR1 inh = -10%; Anesthetic bind = ·

New compounds follow
SMILES | ClpP mod | TrxR1 substrate | miR-21 reporter | TrxR1 inh | Anesthetic bind
COc1ccc(C)cc1N(C)C(=O)c1sc2nc3n(c(=O)c2c1C)CCCCC3 | 0% | -4% | 13% | 79µM* | 390%
COc1cccc(CNC(=O)CCc2nnc3n(C)c(=O)c4sccc4n23)c1 | -4% | 6% | 2% | 9% | -1%
CC(Sc1nnc2ccc3ccccc3n12)C(=O)Nc1ccc(Cl)cc1 (stereo not drawn) | 0% | 1% | -2% | 3% | -15%
COc1ccc(C2Nc3ccccc3C(=O)N2Cc2ccco2)cc1COc1ccc(F)cc1 (stereo not drawn) | 25µM* | 45% | 13% | -6%[57.1 µM] | -21%
CCOc1cc(C2Nc3ccccc3C(=O)N2c2ccccc2OC)ccc1O (stereo not drawn) | ? | 48% | -15% | 3% | 9%
COc1ccc(C2Nc3ccccc3C(=O)N2c2ccc(C)cc2)cc1Cn1nnc2ccccc21 (stereo not drawn) | 32µM* | 90% | -64% | 71% | 126%
COc1ccc(C2Nc3ccccc3C(=O)N2Cc2ccco2)cc1CN1C(=O)c2ccccc2C1=O (stereo not drawn) | 11% | -3% | -8% | -7% | -19%
COc1ccc(C2Nc3ccccc3C(=O)N2Cc2ccccc2)cc1COc1ccccn1 (stereo not drawn) | 25µM* | 126% | 1% | 8% | 46%
COc1cc(C2Nc3ccccc3C(=O)N2c2ccccc2OC)ccc1O (stereo not drawn) | 32µM* | 64% | -13% | -4%[57.1 µM] | 6%
Cc1nc2ccccc2n1CCc1nc2c3ccccc3nc(SCc3ccccc3F)n2n1 | 0% | 5%[57.1 µM] | -5% | 18%[57.1 µM] | -4%
CCSc1ncc(Cl)c(C(=O)N(Cc2ccccc2Cl)C2CCS(=O)(=O)C2)n1 (stereo not drawn) | 0% | 0% | -1% | 12% | -15%
CCCN1C(=O)c2ccccc2NC1c1ccc(OC)c(CSc2ccccn2)c1 (stereo not drawn) | -2% | 111%[57.1 µM] | 0% | 39%[57.1 µM] | 127%
COc1ccc(N2C(=O)c3ccccc3NC2c2ccc(OC)c(COc3ccccn3)c2)cc1 (stereo not drawn) | 25µM*! | 8% | -55% | 3% | 1%
COc1cccc(OCc2cc(C3Nc4ccccc4C(=O)N3c3ccccc3)ccc2OC)c1 (stereo not drawn) | 4% | 47% | · | 41% | ·
COc1ccc(N2C(=O)c3ccccc3NC2c2ccc(OC)c(CSc3ccccn3)c2)cc1 (stereo not drawn) | 25µM* | 143% | -47% | 92% | 13%
CCc1ccc2oc(-c3cc(NC(=O)C(C)C)cc(C)c3O)nc2c1 | -3% | -5% | -1% | 9% | 6%
O=C(C[n+]1ccc(Cl)c2ccc(Cl)cc21)c1ccc(F)cc1 | -1% | 14%[0.0914 µM] | · | 8% | ·
CCOc1ccccc1CNC(=O)C(CC)n1nc(C)c2c(C)n(-c3ccccc3)nc2c1=O (stereo not drawn) | -1% | 7% | 14% | 31% | -4%
CC12CN3CC(c4ccccc4)(CN(C1)C3c1ccc(Cl)cc1)C2=O (stereo not drawn) | 0% | -3% | 12% | 17% | 4%
COc1ccc(N(C)S(=O)(=O)c2cccc(C(=O)Nc3nc4ccccc4[nH]3)c2)cc1 | 28µM* | 5% | 16% | 13%[57.1 µM] | -7%
COc1ccc(-n2ccn(Cc3ccccc3C)c(=O)c2=O)cc1 | 1% | 15% | ? | 23% | 80%
COC(=O)c1c(-n2cnnn2)sc(C)c1C | 22µM* | 76%[57.1 µM] | -9% | 10%[57.1 µM] | -7%
Cc1ccc2c(c1)N(CCC(=O)NC(C)C)C(=O)CO2 | 28µM* | -5%[57.1 µM] | 2% | 17%[57.1 µM] | -5%

Arranged by the number under TrxR1 inh (falling): three from the list above.
Compound | TrxR1 inh
CC(Oc1ccccc1Cl)C(=O)Nc1ccc(S(=O)(=O)N2CCN(C)CC2)cc1 (stereo not drawn) | 20µM*
COc1ccc(CNC(=O)c2sc3nc4n(c(=O)c3c2C)CCCCC4)cc1 | 7.1µM*
CCOc1cccc(C(=O)NC(=S)Nc2cccc(C)c2)c1 | 5µM*

Bioassay records (PubChem)
